Source: article PMC11005446 (European journal of pharmaceutical sciences : official …, 2021)
Where two headings read alike, the source gives them in different places.

What was measured:
[1] = test system: OATP1B1; conditions: cited from earlier work
[2] = test system: OATP1B1 and OATP1B3; conditions: Hepatocytes, substrate rosuvastatin; R-value model
[3] = OATP1B1-expressing cell line, substrate rosuvastatin, ref Farasyn et al., 2019

For CO[C@H]1C[C@@H]2CC[C@@H](C)[C@@](O)(O2)C(=O)C(=O)N2CCCC[C@H]2C(=O)O[C@H]([C@H](C)C[C@@H]2CC[C@@H](OCCO)[C@H](OC)C2)CC(=O)[C@H](C)/C=C(\C)[C@@H](O)[C@@H](OC)C(=O)[C@H](C)C[C@H](C)/C=C/C=C/C=C/1C [EVR, everolimus], the “Co-Incubation R” value [1, 3] is listed as 1.03 (1.02–1.09), the “Pre+Co-Incubation R” value [1] is listed as 1.23 (1.10–1.42) and the “Co-Incubation R” value [2] is listed as 1.02 (1.02–1.03).
For CO[C@H]1C[C@@H]2CC[C@@H](C)[C@@](O)(O2)C(=O)C(=O)N2CCCC[C@H]2C(=O)O[C@H]([C@H](C)C[C@@H]2CC[C@@H](O)[C@H](OC)C2)CC(=O)[C@H](C)/C=C(\C)[C@@H](O)[C@@H](OC)C(=O)[C@H](C)C[C@H](C)/C=C/C=C/C=C/1C [SIR, sirolimus], the “Pre+Co-Incubation R” value [1, 3] is listed as 1.01 (1.01–1.03).
